Experimental data published in US8148092B2, “System and method for performing G protein coupled receptor (GPCR) cell assays using waveguide-grating sensors” (Corning Incorporated, priority 2005, dated 2012).

System: CHO cells with stably overexpressed rat muscarinic receptor subtype 1 (M1 CHO)
Test: optical LID mass redistribution response of CHO cells with stably overexpressed rat muscarinic receptor subtype 1 after compound addition
Format: cell-based, Chinese Hamster
Details: compound 10 μM, compared with CHO cells, FIGS. 14, 15, 18
Protocol: FIG. 14 a time-dependent LID response of engineered Chinese Hamster Ovary (CHO) cells with over-expressed rat muscarnic receptor subtype 1 (thus this cell line is termed as M1 CHO) before and after compound addition. The compound concentration used is 10 μM for all compounds.

Clc1cccc(Cl)c1N=C1NCCN1 [clonidine]
ligand-induced mass redistribution signal (total change in response): induced mass redistribution signals
